# According to US20090247520A1, “INHIBITORS OF ANTIGEN RECEPTOR-INDUCED NF-kappa B ACTIVATION” (The Burnham Institute for Medical Research, priority 2008, published 2009):
# Sequences of proteins named here, by UniProt entry; tags and fusion partners are left off. A change or cut given only in a name is not applied to a line headed by its entry.
# UniProt O14920: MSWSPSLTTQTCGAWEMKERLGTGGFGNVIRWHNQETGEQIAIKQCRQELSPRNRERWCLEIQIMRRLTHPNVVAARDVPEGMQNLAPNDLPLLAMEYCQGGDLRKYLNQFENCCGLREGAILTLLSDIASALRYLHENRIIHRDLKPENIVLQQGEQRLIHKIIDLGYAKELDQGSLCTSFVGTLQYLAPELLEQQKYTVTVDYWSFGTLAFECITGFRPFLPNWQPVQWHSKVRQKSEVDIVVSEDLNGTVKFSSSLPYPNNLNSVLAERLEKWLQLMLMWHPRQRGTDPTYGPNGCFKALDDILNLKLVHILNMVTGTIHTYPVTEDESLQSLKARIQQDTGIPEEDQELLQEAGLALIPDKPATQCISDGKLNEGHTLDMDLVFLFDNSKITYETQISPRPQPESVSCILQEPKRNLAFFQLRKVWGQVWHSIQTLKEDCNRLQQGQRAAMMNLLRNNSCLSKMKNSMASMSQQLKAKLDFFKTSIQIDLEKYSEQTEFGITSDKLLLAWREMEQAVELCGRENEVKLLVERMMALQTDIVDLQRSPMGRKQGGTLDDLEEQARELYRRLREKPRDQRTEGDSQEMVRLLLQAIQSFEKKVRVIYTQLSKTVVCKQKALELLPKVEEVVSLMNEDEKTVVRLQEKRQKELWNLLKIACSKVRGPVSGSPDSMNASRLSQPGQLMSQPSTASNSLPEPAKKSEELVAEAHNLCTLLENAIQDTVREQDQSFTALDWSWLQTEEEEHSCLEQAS
# Molecular target: T1, IKK-beta (Homo sapiens, UniProt O14920)
# T1 construct: purchased Cell Signaling, Danvers, Mass
# Assay: In vitro kinase assay IKK-beta (HTScan kit)
# Format: biochemical
# Details: CID-2858522 up to 8 μM; STS 0.5 μM; IKK inhibitor 10 μM
# Protocol: CID-2858522 (8 μM) were tested in in vitro IKK beta (A), PKC beta […] or PKC theta (C) kinase assays using kits. STS (0.5 μM), IKK inhibitor (10 μM) and PKC inhibitor (1 μM) were used as positive controls.
# In Vitro Kinase Assays. PKC-beta, PKC-theta and IKK-beta in vitro kinase assays were performed using the HTScan Kinase Assay Kit (Cell Signaling, Danvers, Mass.) according to manufacturer's protocols. A panel of >300 kinases was screened by Ambit, Inc.
smiles,measurement,value
CN[C@@H]1C[C@H]2O[C@@](C)([C@@H]1OC)n1c3ccccc3c3c4c(c5c6ccccc6n2c5c31)C(=O)NC4 [staurosporin],inhibition of IKK-beta kinase activity,potent inhibition
